The target in the assay is TrkB (Homo sapiens (Human), UniProt Q16620). The experiment in a line: TrkB activity, off-chip mobility shift assay (LabChip 3000). In kind it is biochemical. The source says: Reagents and consumables were purchased from Sigma Aldrich, Carna Biosciences, or Caliper Life Sciences. All assay reaction conditions for IC50 determinations were within the linear range with respect to time and enzyme concentration. […] The LabChip 3000 separates and measures the fluorescent signal of fluorescein labeled peptide substrate and fluorescein labeled peptide product present in each well. Results are expressed as percent conversion by measuring peak height for both the substrate and product and dividing the product peak height by the sum of peak heights for both substrate and product.

The chains behind the UniProt entries cited, without tags or fusion partners. Residues count along the entry.
UniProt Q16620, 32-822: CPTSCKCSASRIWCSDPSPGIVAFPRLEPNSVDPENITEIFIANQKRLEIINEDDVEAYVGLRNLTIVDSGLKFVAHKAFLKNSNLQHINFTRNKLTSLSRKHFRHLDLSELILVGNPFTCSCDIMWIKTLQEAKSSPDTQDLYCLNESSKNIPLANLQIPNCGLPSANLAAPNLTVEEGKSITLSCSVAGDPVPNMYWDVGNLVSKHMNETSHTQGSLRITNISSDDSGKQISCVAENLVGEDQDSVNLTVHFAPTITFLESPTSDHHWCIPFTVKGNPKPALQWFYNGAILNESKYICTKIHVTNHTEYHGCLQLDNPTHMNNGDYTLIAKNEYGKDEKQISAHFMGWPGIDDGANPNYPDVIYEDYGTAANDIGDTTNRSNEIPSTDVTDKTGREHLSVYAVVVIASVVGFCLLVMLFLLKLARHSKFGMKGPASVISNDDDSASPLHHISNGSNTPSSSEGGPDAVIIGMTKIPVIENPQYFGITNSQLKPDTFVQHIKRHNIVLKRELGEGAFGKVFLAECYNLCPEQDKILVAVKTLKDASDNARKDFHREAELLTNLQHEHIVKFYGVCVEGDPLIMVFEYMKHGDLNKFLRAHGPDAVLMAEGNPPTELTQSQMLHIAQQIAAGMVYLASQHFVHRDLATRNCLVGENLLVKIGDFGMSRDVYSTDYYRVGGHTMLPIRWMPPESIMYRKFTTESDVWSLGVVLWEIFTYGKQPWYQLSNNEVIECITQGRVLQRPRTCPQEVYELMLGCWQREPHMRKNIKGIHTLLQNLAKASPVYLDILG

Our source for the IC50 values is patent publication US9067914B1, “Tropomyosin-related kinase (TRK) inhibitors” (Genzyme Corporation, priority 2013, dated 2015).

On to `COc1cc([C@@H](C)n2c(N)nc3cc(-c4cnn(C)c4)cnc32)ccc1OCc1ccc(C(F)(F)F)cc1` (single isomer, unassigned) [Ex. 3-49-6b, 3-(1-(3-methoxy-4-((4-(trifluoromethyl)benzyl)oxy)phenyl)ethyl)-6-(1-methyl-1H-pyrazol-4-yl)-3H-imidazo[4,5-b]pyridin-2-amine], for which the IC50 (in general, the concentration that inhibits the measured activity by half) worked out at 3 nM.

On to `COc1cc([C@H](C)n2c(N)nc3cc(-c4cnn(C)c4)cnc32)ccc1OCc1ccc(C(F)(F)F)cc1` (single isomer, unassigned) [Ex. 3-49-6a, 3-(1-(3-methoxy-4-((4-(trifluoromethyl)benzyl)oxy)phenyl)ethyl)-6-(1-methyl-1H-pyrazol-4-yl)-3H-imidazo[4,5-b]pyridin-2-amine], for which the IC50 is 0.6 nM.
